Assay results reported in patent EP1961762A1, “Inhibitors of protein phosphatase 1/GADD34, preparation and uses thereof” (Institut Gustave Roussy, priority 2007, dated 2008).

Tested on: CRT and/or ERp57
Test: Immunofluorescence staining of unfixed human tumour cell lines
Type: cell-based
Details: variety of human tumour cell lines

## O=C1c2c(O)ccc(O)c2C(=O)c2c(NCCNCCO)ccc(NCCNCCO)c21 [mitoxantrone]
  exposure of CRT and/or ERp57 on the cell surface: expose CRT and/or ERp57 on the surface
